From PubChem BioAssay AID1789 (The Scripps Research Institute Molecular Screening Center, 2009) come the findings set out here.

This is a selection; strong and weak results do not stand in their true shares. Some results for these compounds are left out of this collection, so the calls shown say nothing about other tests. The source made the active and inactive calls.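 The calls were made as follows: active = inhibition above the screen-wide mean plus 3 SD, computed separately per campaign (cut at about 16% in these data); inactive = the rest.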

The test concerns Heat shock protein HSP 90 (rabbit reticulocyte lysate; luciferase refolding). Kind of test: HSP90 inhibitors, primary screen, cell lysate, luminescence (AID 1789).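 Also: 0% = DMSO wells and 100% = 60 µM geldanamycin wells; inhibitors lower the luminescence because luciferase stays unfolded.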 As to conditions: 3 h, at 5.6 µM, hits give high values.
Broadly, the inhibition is the change of the read-out against control, counted positive when it falls. Regarding `CCN1CCCC(OC(=O)C2(O)c3ccccc3C=Cc3ccccc32)C1` (centres undefined), the inhibition is inactive: 0.17%.

For `Cc1cc(C(=O)NCC2(N3CCCCC3)CCCCC2)ccc1[N+](=O)[O-]`, the inhibition is inactive: 4.68%.

`O=C(NCC1(N2CCCCC2)CCCCC1)c1cccc(Br)c1`: the inhibition was inactive: -6.42%.

Regarding `COc1ccc(C(=O)NCC2(N(C)C)CCCCC2)cc1`, the inhibition is inactive: 3.38%.

In the case of `C=CCN1CCN(CCOC(=O)C(O)(c2ccccc2)c2ccccc2)CC1`, the inhibition is inactive: -1.87%.

Regarding `O=C(NCC1(N2CCCCC2)CCCCC1)c1cc(F)c(F)cc1Cl`, the inhibition is inactive: -3.28%.

Take `Cc1ccccc1C(=O)NCC1(N2CCCCC2)CCCCC1`: the inhibition was inactive: 3.41%.

`CN(C)c1ccc(C(=O)NCC2(N(C)C)CCCCC2)cc1`: the inhibition is inactive: 0.14%.

In the case of `CN(C)C1CCCC1OC(=O)C(O)(c1ccccc1)c1ccccc1` (centres undefined), the inhibition is inactive: -1%.

For `Cc1ccc(C(=O)NCC2(N3CCCCC3)CCCCC2)cc1`, the inhibition is inactive: 4.54%.

With `CC(C)N1C(=O)CC2(CCN(CCOC(=O)C(O)(c3ccccc3)c3ccccc3)CC2)C1=O`, the inhibition is inactive: -0.2%.

Turning to `CCN(CC)CC(C)C(C)OC(=O)C(O)(c1ccccc1)c1ccccc1` (centres undefined), the inhibition was inactive: -1.68%.

For `COc1cc(SC)ccc1C(=O)NCC1(N(C)C)CCCCC1`, the inhibition was inactive: -1.8%.

Consider `CN1[C@@H]2CC[C@H]1CC(OC(=O)C(O)(c1ccccc1)c1ccccc1)C2` (some centres undefined), for which the inhibition is inactive: -0.94%.

As for `O=C(NCC1(N2CCCCC2)CCCCC1)c1cc([N+](=O)[O-])ccc1Cl`, the inhibition is inactive: 1.02%.

As to `CN(C)c1cccc(C(=O)NCC2(N(C)C)CCCCC2)c1`, the inhibition was inactive: -2.8%.

With `CC(C)Oc1ccc(C(=O)NCC2(N(C)C)CCCCC2)cc1`, the inhibition was inactive: 3.29%.

As for `COc1ccc(Br)c(C(=O)NCC2(N3CCCCC3)CCCCC2)c1`, the inhibition was inactive: 1.01%.

`O=C(OC1CN2CCC1CC2)C(CO)(c1ccccc1)c1ccccc1` (centres undefined): the inhibition was inactive: 2.92%.

As to `O=C(NCC1(N2CCCCC2)CCCCC1)c1cccc(Cl)c1`, the inhibition was inactive: 0.97%.

In the case of `COc1cccc(C(=O)NCC2(N3CCCCC3)CCCCC2)c1`, the inhibition was inactive: -0.52%.

Regarding `COc1ccc(Cl)cc1C(=O)NCC1(N(C)C)CCCCC1`, the inhibition is inactive: 1.4%.

`COc1cc(C(=O)NCC2(N(C)C)CCCCC2)c([N+](=O)[O-])cc1OC`: the inhibition is inactive: 1.87%.

`CN(C)C1(CNC(=O)c2ccc(Br)cc2)CCCCC1`: the inhibition is inactive: 1.92%.
